Data from PubChem BioAssay AID588856 (National Center for Advancing Translational Sciences (NCATS), 2011).
This is a selection; strong and weak results do not stand in their true shares. Activity calls are given as the source filed them. The call rests on the fitted dose curve; in most records, active means well fitted cell-killing curve with a large enough effect; inactive means no such curve, though single readings can be large or run the other way.

Test: qHTS for Inhibitors of TGF-b: Cytotox Counterscreen
Conditions: HepG2 CAGA-GFP viability, ATP luminescence, 18 h; series mostly up to 46.1 µM; activity change, negative = cytotoxicity: at the top concentration
Description: TGF-b is a main component in the TGF-b signaling pathway which plays diverse roles in cellular and development pathways. TGF-b is mediated by transcription factors called "Smads". Although the Smad-dependent pathway is the primary canonical TGF-b signaling mode, TGF-b1 can also activate alternative signaling pathways, including those involving MAPK (ERK, JNK and p38). This interaction may mediate or enhance Smad-dependent responses, or can exert Smad-independent effects. The complexity of this signaling cascade allows the TGF-b superfamily to perform unique, overlapping or redundant functions. We believe that targeting the TGF-beta pathway at the Smad-transcription factor level may eliminate the consequences of disrupting the entire pathway and offer specificity without affecting other signaling pathways. Smad3 is the primary transducer of TGF-b's signals and Smad3 regulates many functions attributed to TGF-b signaling. We hypothesize that Smad3 inhibitors will selectively eliminate Smad3-specific TGF-beta signals without undesired off-target effects. We aim to identify Smad3-small molecule antagonists using a quantitative high throughput screening (qHTS) approach.
A high-throughput assay was developed to screen the NIH Molecular Libraries Small Molecule Repository (MLSMR). This is a cell based assay, where TGF-b is tagged with GFP. This is a counterscreen that evaluates the cytotoxicity of the compounds that were screened in the primary cell-based screen (AID 588855).
MH087449NIH Chemical Genomics Center [NCGC]
NIH Molecular Libraries Probe Centers Network [MLPCN]
Assay Submitter (PI): Sushil Rane, National Institute of […]
Suspensions of trypsinized HEPG2 CAGA-GFP cells were dispensed into white, tissue culture-treated, solid 1536-well plates at 5uL/well (1000 cells/well final concentration) in DMEM medium supplemented with 1% FBS. Plates were incubated at 37 degrees C for 2 hours, after which 23 nL of compounds or DMSO were delivered to each well using a pin tool. One uL of recombinant TGF-beta in DMEM (1% FBS) was then dispensed (500 pg/mL final concentration), and plates were incubated at 37 degrees C for 18 hours. Two uL of CellTiter Glo (Promega), a luminescence-based viability reagent, was dispensed, followed by a 10 minute room temperature incubation. The plates were then measured on a PerkinElmer ViewLux plate reader for luminescence (clear filter) using a 5 second exposure. The %Activity was determined from the corrected luminescence values. Wells containing media only (no cells) were used to normalize %Activity of identified toxic compounds; media-only wells corresponded to 100%Activity (complete cell-killing), while DMSO-dosed cell controls were used to normalize 0%Activity (no toxicity).
Concentration-response curves were fitted to the signals arising from the resulting luminescence. The concentration-effect curves were then classified based on curve quality (r2), response magnitude and degree of measured activity, and compounds were subsequently categorized based on their curve class.
Potency means the concentration at half of the fitted maximal effect.

Structure (SMILES) | activity change, negative = cytotoxicity | Potency
O=C(O)C(=O)c1ccc(N(CCCl)CCCl)cc1 | inactive: -6.19% | 
O=C(Nc1ccncc1[N+](=O)[O-])c1ccc([N+](=O)[O-])cc1[N+](=O)[O-] | inactive: -79.3% | 
O=C(COc1ccccc1)OC1CN2CCC1CC2 (stereo not drawn) | inactive: -3.35% | 
COC(=O)C1(C)COP(=O)(N2CCCC2)OC1 (stereo not drawn) | inactive: 15.9% | 
COP1(=S)c2c(C)nn(CCC#N)c2N=C(c2ccc(F)cc2)N1C (stereo not drawn) | inactive: -20.4% | 
CCC(C)N(CC(C)C)C(=S)SC(NC(C)=O)C(Cl)(Cl)Cl (stereo not drawn) | inactive: -33.6% | 
CCOP(=O)(Nc1cccc2cccnc12)OCC | inactive: 3.16% | 
CSc1ccc(Nc2c([N+](=O)[O-])cc([N+](=O)[O-])cc2[N+](=O)[O-])cc1 |  | active: 7.08 µM
O=C(OC1CN2CCC1CC2)c1cccc([N+](=O)[O-])c1 (stereo not drawn) | inactive: 4.12% | 
CCOC(=O)c1ccc(NC(=O)C(C)(CCl)SC)cc1 (stereo not drawn) | inactive: 30.7% | 
COP(=O)(OC)N1CC1c1ccccc1 (stereo not drawn) | inactive: 2.69% | 
Cc1cc(SC(NC(=O)c2ccccc2)C(Cl)(Cl)Cl)nc(C(C)C)n1 (stereo not drawn) | inactive: -31.4% | 
CCCCOc1ccc(C(=O)NCC2(N3CCCCC3)CCCCC2)cc1OC | inactive: -25.7% | 
O=C(O)C(O)c1ccc(N(CCCl)CCCl)cc1 (stereo not drawn) | inactive: -1.48% | 
CCOC(=O)Nc1ccc([As](=O)(O)O)c(O)c1 | inactive: -4.89% | 
CC1CCNP(=O)(N(CCCl)CCCl)O1 (stereo not drawn) | inactive: -4.45% | 
Cc1cc(SC(NC=O)C(Cl)(Cl)Cl)ncn1 (stereo not drawn) | inactive: -10.1% | 
O=P(Nc1ccccn1)(c1cccc2ccccc12)c1cccc2ccccc12 | inactive: 1.39% | 
O=[N+]([O-])c1ccc(Nc2ccc(Oc3ccc([N+](=O)[O-])cc3[N+](=O)[O-])cc2)c([N+](=O)[O-])c1 | inactive: -19.5% | 
CCOC(=O)Nc1cccc([As](=O)(O)O)c1 | inactive: -1.65% | 

Structure (SMILES) | activity change, negative = cytotoxicity | Potency
ClCCN(CCCl)c1ccc(CC2C=CC=C2)cc1 | inactive: -79.7% | 
Cc1ccc(OP(=O)(Nc2ccc([N+](=O)[O-])cn2)Oc2ccc(C)cc2)cc1 | inactive: 1.29% | 
Cc1ccc2nc3c(c(C)c2c1)CC(C(Cl)Cl)S3 (stereo not drawn) | inactive: 14% | 
COc1cc(C(=O)NCC2(N3CCOCC3)CCCCC2)ccc1OCC(C)C | inactive: -6.52% | 
O=[N+]([O-])c1ccc(-c2cc([N+](=O)[O-])c(O)c([N+](=O)[O-])c2)cc1 | inactive: -38% | 
C[As](=O)(O)c1cccc(C(=O)O)c1 | inactive: 3.32% | 
O=[As](O)(c1ccc(O)cc1)c1ccccc1O | inactive: 3.5% | 
O=[N+]([O-])c1cc([N+](=O)[O-])c(-c2ccn[nH]2)s1 |  | active: 15.8 µM
CCN(CC)C(=S)SC(NC=O)C(Cl)(Cl)Cl (stereo not drawn) | inactive: -0.831% | 
O=C(OC1CN2CCC1CC2)c1cccc2[nH]cnc12 (stereo not drawn) | inactive: -1.45% | 
CC(C)NC(=O)NP(=O)(Oc1ccccc1)Oc1ccccc1 | inactive: -3.12% | 
O=Cc1ccc(NCCCl)cc1 | inactive: -19.4% | 
ClCCSc1nnc(-c2cccnc2)o1 | inactive: 3.23% | 
CC(C)c1ccc(OP(=O)(Nc2ccccn2)Oc2ccccc2F)cc1 (stereo not drawn) | inactive: -1.57% | 
COC(=O)C1(C)COP(=O)(N2CCCCCC2)OC1 (stereo not drawn) | inactive: 3.37% | 
O=P1(N(CCCl)CCCl)Nc2ccccc2N1 | inactive: -17.7% | 
O=P1(N(CCCl)CCCl)OCCCN1CCCl (stereo not drawn) | inactive: -2.73% | 
COc1cc(I)ccc1[As](=O)(O)O | inactive: -29.1% | 
COc1ccc2nc(NP(=O)(c3ccccc3)c3ccccc3)sc2c1 | inactive: -24.4% | 
Cc1c2c(nc3ccccc13)SC(C(Cl)Cl)C2 (stereo not drawn) | inactive: 0.904% | 

Structure (SMILES) | activity change, negative = cytotoxicity | Potency
Cc1cc(=O)[nH]c(N[N+](=O)[O-])n1 | inactive: -7.75% | 
O=C(OC1CN2CCC1CC2)C12CC3CC(CC(C3)C1)C2 (stereo not drawn) | inactive: -2.6% | 
O=[N+]([O-])c1cc(Oc2ccc([N+](=O)[O-])cc2C(F)(F)F)cc([N+](=O)[O-])c1 | inactive: -9.4% | 
COc1ccc(N/C(=N/P(=O)(N2CCOCC2)N2CCOCC2)N2CCOCC2)cc1 | inactive: -21.4% | 
O=[As](O)(c1cccc(O)c1)c1cccc(O)c1 | inactive: 6.81% | 
Cc1cccc(OCC(=O)OC2CN3CCC2CC3)c1 (stereo not drawn) | inactive: 15.2% | 
O=C(OC1CN2CCC1CC2)c1ccc(Cl)cc1 (stereo not drawn) | inactive: 1.21% | 
CS(=O)(=O)c1ccc(Cl)c(NC(=O)COC(=O)C(O)(c2ccccc2)c2ccccc2)c1 | inactive: 0.925% | 
COc1cc(C(=O)NCC2(N3CCOCC3)CCCCC2)cc(Cl)c1OC(C)C | inactive: -14.7% | 
O=[As](O)(O)c1cccnc1 | inactive: 0.934% | 
CCOP(=O)(Nc1cccc2ccccc12)OCC | inactive: -11.5% | 
COc1cc(C2NCCC3(OCCO3)C2(C)C)cc(OC)c1OC (stereo not drawn) | inactive: -99.4% | 
Cc1ccc(NCCc2c([N+](=O)[O-])cc([N+](=O)[O-])cc2[N+](=O)[O-])cc1 | inactive: -84.8% | 
Nc1cccc2c([As](=O)(O)O)cccc12 | inactive: -5.59% | 
CCCOP(=S)(Nc1nc(N)cc(=O)[nH]1)OCCC | inactive: -3.43% | 
O=C(O)COc1ccc([As](=O)(O)O)cc1[N+](=O)[O-] | inactive: 2.62% | 
Nc1ccccc1[As](=O)(O)c1ccccc1 | inactive: -1.69% | 
O=P(Nc1nccs1)(c1ccccc1)c1nc2ccccc2s1 (stereo not drawn) | inactive: -14.6% | 
